Assay results taken from patent US20100093655A1 (priority 2007, published 2010).

Tested on: lymphocytes of a healthy individual
Settings: presence or absence of riluzole (FIG. 4B)

In the case of `Nc1nc2ccc(OC(F)(F)F)cc2s1` [riluzole, 6-(trifluoromethoxy)-2-aminobenzothiazole], the effect on mortality is reported as “do not show a specific effect on mortality”.
